From US8802686B2, “Sulfone-substituted anilinopyrimidine derivatives as CDK inhibitors, the production thereof, and use as a medicine” (Bayer Intellectual Property GmbH, priority 2008, dated 2014)

Chains of the proteins cited; added tags and fusions are not shown.
UniProt P06493, whole entry: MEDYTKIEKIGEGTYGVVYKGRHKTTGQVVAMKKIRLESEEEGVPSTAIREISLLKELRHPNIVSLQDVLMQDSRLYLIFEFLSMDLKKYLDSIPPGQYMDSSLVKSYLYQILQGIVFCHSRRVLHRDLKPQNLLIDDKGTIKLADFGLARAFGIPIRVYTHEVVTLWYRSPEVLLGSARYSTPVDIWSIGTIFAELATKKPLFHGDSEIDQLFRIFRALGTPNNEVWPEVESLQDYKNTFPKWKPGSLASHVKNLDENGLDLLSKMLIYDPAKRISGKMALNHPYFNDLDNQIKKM

What was measured:
CDK1/CycB = CDK1/CycB (Homo sapiens (Human), UniProt P06493); test: CDK1/CycB kinase assay (Assay 1); assay type: biochemical; conditions: read-out: CDK1/CycB (Assay 1) Concentration of the half-maximal inhibition of the enzyme activity, IC50
Protocol: (§1) Recombinant CDK1 and CycB-GST fusion proteins, purified from baculovirus-infected insect cells (Sf9), were purchased from ProQinase GmbH, Freiburg. The histone IIIS used as kinase substrate is commercially available from Sigma. […] The reaction was stopped by adding EDTA solution (250 mM; pH 8.0; 15 μl/measuring point). From each reaction mixture, 15 μl were applied to P30 filter strips (Wallac), and unincorporated ^33P-ATP was removed by washing the filter strips three times, for 10 min in each case, in 0.5% phosphoric acid. After drying the filter strips for 1 hour at 70°, the filter strips were covered with scintillator strips (MeltiLex™ A, Wallac) and stoved for 1 hour at 90° C. The amount of incorporated ^33P (substrate phosphorylation) was determined by scintillation measurement in a gamma-radiation measuring instrument (Wallac).

CDK2/CycE = CDK2/CycE (Homo sapiens (Human), UniProt P24941); test: CDK2/CycE kinase assay (Assay 2); assay type: biochemical; conditions: read-out: CDK2/CycE (Assay 2) Concentration of the half-maximal inhibition of the enzyme activity, IC50
Protocol: as §1, with “CDK2” for “CDK1”, “CycE-GST” for “CycB-GST”, “Histone IIIS, which was” for “The histone IIIS”, “substrate, was purchased” for “substrate is commercially available”, “70° C.,” for “70°,”

## C[C@@H](O)[C@@H](C)Oc1nc(Nc2ccc(S(C)(=O)=O)cc2)ncc1C(F)(F)F [Example 2, (2R,3R)-3-[2-(4-Methanesulphonylphenylamino)-5-trifluoromethylpyrimidin-4-yloxy]butan-2-ol]
CDK1/CycB
  IC50: 9 nM
CDK2/CycE
  IC50: 8 nM
